Measurements published in patent publication US7265147B2, “3,6-disubstituted azabicyclo [3.1.0]hexane derivatives useful as muscarinic receptor antagonists” (Ranbaxy Laboratories Limited, priority 2002, dated 2007).
Read-outs that look alike come from different tables or passages of the source.

Test system: isolated rat bladder

## O=C(NCC#CCN1C[C@H]2C[C@H]2C1)C(O)(c1ccccc1)C1CCCCC1 (stereo partly drawn) [Compound No. 9, N-{4-[(1R, 5S)-3-azabicyclo[3.1.0]-hex-3-yl]but-2-ynyl}-2-hydroxy-2-cyclohexyl-2-phenylacetamide]
  Functional Assay pKB: 6.82

## CCN(CC)CC#CCOC(=O)C(O)(c1ccccc1)C1CCCCC1 (stereo not shown) [Oxybutynin, reference compound]
Rat bladder strips, carbachol concentration response curve
  Functional Assay pKB: 2.0

## O=C(NCC#CCN1C[C@H]2C[C@H]2C1)C(O)(c1ccccc1)C1CCCC1 (stereo partly drawn) [Compound No. 10, N-{4-[(1R, 5S)-3-azabicyclo[3.1.0]-hex-3-yl]but-2-ynyl}-2-hydroxy-2-cyclopentyl-2-phenylacetamide]
  Functional Assay pKB: 7.01

## Cc1ccc(O)c([C@H](CCN(C(C)C)C(C)C)c2ccccc2)c1 [Tolterodine, reference compound]
  Functional Assay pKB: 2.0
